# Assay results as given in PubChem BioAssay AID488847 (NMMLSC, 2010).
# Sequences of proteins named here, by UniProt entry; tags and fusion partners are left off. A change or cut given only in a name is not applied to a line headed by its entry.
# UniProt P25098: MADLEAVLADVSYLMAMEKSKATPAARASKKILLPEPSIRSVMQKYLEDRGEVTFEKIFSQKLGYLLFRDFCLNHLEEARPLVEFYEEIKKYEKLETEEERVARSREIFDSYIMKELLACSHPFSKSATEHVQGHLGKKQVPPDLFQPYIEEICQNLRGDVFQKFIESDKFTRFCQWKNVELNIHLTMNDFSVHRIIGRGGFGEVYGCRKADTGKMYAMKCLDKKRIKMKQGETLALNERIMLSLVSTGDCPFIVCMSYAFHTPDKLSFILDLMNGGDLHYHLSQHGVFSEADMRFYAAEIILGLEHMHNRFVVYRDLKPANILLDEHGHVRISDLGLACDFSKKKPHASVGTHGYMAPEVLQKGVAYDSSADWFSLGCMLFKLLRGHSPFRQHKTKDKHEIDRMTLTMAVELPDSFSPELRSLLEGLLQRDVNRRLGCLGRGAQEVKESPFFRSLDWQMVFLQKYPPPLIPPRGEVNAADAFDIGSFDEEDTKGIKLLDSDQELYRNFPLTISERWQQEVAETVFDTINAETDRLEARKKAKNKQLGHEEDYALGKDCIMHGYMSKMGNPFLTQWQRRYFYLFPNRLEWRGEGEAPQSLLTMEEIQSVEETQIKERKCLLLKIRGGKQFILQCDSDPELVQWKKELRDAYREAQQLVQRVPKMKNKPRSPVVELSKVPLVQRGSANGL
# The list shows a part of the results, in another mix than the full data. The source made the active and inactive calls.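 Rule for the calls: active = inhibition of aptamer binding above 40%, roughly 3 SD of noise, on plates passing a quality check; inactive = the rest.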
# Target: Beta-adrenergic receptor kinase 1 (Homo sapiens) (UniProt P25098)
# Test: compounds blocking aptamer binding on GRK2 – biochemical, human GRK2, bead flow cytometry, HTS, primary screen (AID 488847);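 note: median bead fluorescence of bound FAM aptamer so fluorescent compounds give negative values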
# Settings: FAM-aptamer displacement from GRK2, at 10 µM, active compounds read high
row,Structure (SMILES),inhibition of aptamer binding
1,Cc1ccc(OP(=O)(Nc2ccc([N+](=O)[O-])cn2)Oc2ccc(C)cc2)cc1,inactive: 2%
2,C[As](=O)(O)c1cccc(C(=O)O)c1,inactive: 1%
3,O=[As](O)(c1ccc(O)cc1)c1ccccc1O,inactive: 1%
4,CC(C)NC(=O)NP(=O)(Oc1ccccc1)Oc1ccccc1,inactive: 2%
5,O=[N+]([O-])c1cc([N+](=O)[O-])c(-c2ccn[nH]2)s1,inactive: 4%
6,COc1ccc2nc(NP(=O)(c3ccccc3)c3ccccc3)sc2c1,inactive: 1%
7,O=C(OC1CN2CCC1CC2)C12CC3CC(CC(C3)C1)C2 (stereo not drawn),inactive: 1%
8,Cc1c2c(nc3ccccc13)SC(C(Cl)Cl)C2 (stereo not drawn),inactive: 1%
9,COP1(=S)c2c(C)nn(CCC#N)c2N=C(c2ccc(F)cc2)N1C (stereo not drawn),inactive: 1%
10,CCC(C)N(CC(C)C)C(=S)SC(NC(C)=O)C(Cl)(Cl)Cl (stereo not drawn),inactive: 2%
11,CCOC(=O)c1ccc(NC(=O)C(C)(CCl)SC)cc1 (stereo not drawn),inactive: 5%
12,Cc1cc(SC(NC(=O)c2ccccc2)C(Cl)(Cl)Cl)nc(C(C)C)n1 (stereo not drawn),inactive: 4%
13,CCOC(=O)Nc1ccc([As](=O)(O)O)c(O)c1,inactive: 1%
14,O=[N+]([O-])c1ccc(Nc2ccc(Oc3ccc([N+](=O)[O-])cc3[N+](=O)[O-])cc2)c([N+](=O)[O-])c1,inactive: 1%
15,O=P(Nc1ccccn1)(c1cccc2ccccc12)c1cccc2ccccc12,inactive: 3%
16,Cc1cc(SC(NC=O)C(Cl)(Cl)Cl)ncn1 (stereo not drawn),inactive: 1%
17,O=C(/C=C/c1ccccc1)OC1CN2CCC1CC2 (stereo not drawn),inactive: 2%
18,Cc1nn(-c2ccccc2)c2c1P(=O)(N1CCOCC1)N(C)C(c1ccccc1)=N2 (stereo not drawn),inactive: 2%
19,CC1CCC(C(C)C)C(OP(=O)(Nc2ccccn2)c2ccccc2)C1 (stereo not drawn),inactive: 3%
20,Cc1ccc(OCC(=O)OC2CN3CCC2CC3)cc1 (stereo not drawn),inactive: 3%
21,O=[As](O)(c1cccs1)c1cccs1,inactive: 3%
22,O=P1(Nc2ccc(Br)cn2)COc2ccccc2OC1,inactive: 3%
23,NS(=O)(=O)c1cccc(NC(=O)COC(=O)C(O)(c2ccccc2)c2ccccc2)c1,inactive: 2%
24,Clc1n[nH]nc1-c1nn[nH][15n]1,inactive: 6%
25,CC(C)(C)C(=O)NC(Sc1ncccn1)C(Cl)(Cl)Cl (stereo not drawn),inactive: 10%
26,O=[As](O)(c1ccccc1Br)c1ccccc1Br,inactive: 1%

row,Structure (SMILES),inhibition of aptamer binding
1,CC1(CBr)Cn2c(nc3ccccc3c2=O)S1 (stereo not drawn),inactive: 6%
2,COc1cc(C(=O)NCC2(N3CCOCC3)CCCCC2)cc(Cl)c1OC(C)C,inactive: 2%
3,CS(=O)(=O)c1ccc(Cl)c(NC(=O)COC(=O)C(O)(c2ccccc2)c2ccccc2)c1,inactive: 1%
4,CCCOP(=S)(Nc1nc(N)cc(=O)[nH]1)OCCC,inactive: 4%
5,Cc1ccc(NCCc2c([N+](=O)[O-])cc([N+](=O)[O-])cc2[N+](=O)[O-])cc1,inactive: 7%
6,Nc1cccc2c([As](=O)(O)O)cccc12,active: 48%
7,Nc1ccccc1[As](=O)(O)c1ccccc1,inactive: 3%
8,O=C(O)COc1ccc([As](=O)(O)O)cc1[N+](=O)[O-],inactive: 6%
9,O=P(Nc1nccs1)(c1ccccc1)c1nc2ccccc2s1 (stereo not drawn),inactive: 1%
10,O=[N+]([O-])c1ccc2c(c1)nnn2O,inactive: 1%
11,CN(C)C(=O)c1cc([N+](=O)[O-])cc2c1-c1c(cc([N+](=O)[O-])cc1[N+](=O)[O-])C2=O,inactive: 1%
12,CCNC(=S)/N=C(\N)N[N+](=O)[O-],inactive: 5%
13,c1ccc(-c2nn[nH]n2)c(-c2nn[nH]n2)c1,inactive: 7%
14,Cc1ccc(NP(=O)(Oc2cccc(C)c2)Oc2cccc(C)c2)nc1,inactive: 1%
15,CCOC(=O)NC(Sc1ccccc1)C(Cl)(Cl)Cl (stereo not drawn),inactive: 1%
16,Cc1ccccc1OP(=O)(Nc1ccccn1)Oc1ccccc1C,inactive: 2%
17,CN(C)C(=O)Oc1noc2ccccc12,inactive: 1%
18,Cc1ccc(OP(=O)(Nc2ccccn2)Oc2ccc(C)cc2)cc1,inactive: 2%
19,O=C(OC1CN2CCC1CC2)c1ccccc1 (stereo not drawn),inactive: 1%
20,O=P1(Nc2nc3ccc(Cl)cc3s2)COc2ccccc2O1 (stereo not drawn),inactive: 2%
21,CC(=O)Nc1ccc([As](=O)(O)O)c(O)c1,inactive: 3%
22,CC(=O)Nc1ccc(Oc2c([N+](=O)[O-])cc([N+](=O)[O-])cc2[N+](=O)[O-])cc1,inactive: 3%
23,CC(=O)c1ccc(N2CC2c2ccncc2)cc1 (stereo not drawn),inactive: 6%
24,C[C@@H]1C=CCP(=O)(Oc2ccccc2)O1 (stereo partly drawn),inactive: 5%
25,c1nnnn1CCn1cnnn1,inactive: 1%
26,O=P(Nc1nccs1)(c1ccccc1)c1ccccc1,inactive: 1%

row,Structure (SMILES),inhibition of aptamer binding
1,O=P(Nc1ccccn1)(c1ccc(Br)cc1)c1ccc(Br)cc1,inactive: 2%
2,CN(C)C1(CNC(=O)c2ccc(Cl)c(S(N)(=O)=O)c2)CCCCC1,inactive: 1%
3,C(Cc1nn[nH]n1)Cc1nn[nH]n1,inactive: 4%
4,O=[N+]([O-])c1ccc(O)c(/C=N/Nc2ccc([N+](=O)[O-])cc2[N+](=O)[O-])c1,inactive: 4%
5,O=[N+]([O-])c1ncn(CCn2cnc([N+](=O)[O-])n2)n1,inactive: 1%
6,O=[As](O)(c1ccccc1)c1ccc(O)cc1,inactive: 3%
7,O=[N+]([O-])c1cccc(NC2=NCC(CBr)S2)c1 (stereo not drawn),inactive: 1%
8,O=C(O)CNc1ccc([As](=O)(O)O)cc1,inactive: 1%
9,O=[N+]([O-])c1ncn(CCn2ncnc2[N+](=O)[O-])n1,inactive: 2%
10,O=[N+]([O-])c1cccc2n[nH]nc12,inactive: 1%
11,Cc1ccc(NP(=O)(Oc2ccccc2)Oc2ccccc2)nc1,inactive: 4%
12,O=[N+]([O-])c1cc([N+](=O)[O-])c(CCNc2ccccc2)c([N+](=O)[O-])c1,inactive: 7%
13,COc1ccc(C2=NCC(CBr)S2)cc1 (stereo not drawn),inactive: 1%
14,CC(C)=N/N=C(\N)N[N+](=O)[O-],inactive: 1%
15,Nc1ccc([As](=O)(O)c2ccc(N)cc2)cc1,inactive: 2%
16,C[N+]1=C2C=CC=CC=C2SC12C([N+](=O)[O-])=CC([N+](=O)[O-])=C[C-]2[N+](=O)[O-] (stereo not drawn),inactive: 1%
17,COc1ccccc1OP(=O)(Nc1ccc(C)cn1)Oc1ccccc1OC,inactive: 2%
18,Cc1ccc(OP(=O)(Nc2nccs2)Oc2ccc(C)cc2)cc1,inactive: 3%
19,NC(=O)c1cc([N+](=O)[O-])cc([N+](=O)[O-])c1N,inactive: 3%
20,Oc1ccccc1CNc1ccccn1,inactive: 5%
21,Cc1cc(SC(NC(=O)c2ccc(F)cc2)C(Cl)(Cl)Cl)ncn1 (stereo not drawn),inactive: 1%
22,Cc1ccc(NP(=O)(Oc2ccccc2F)Oc2ccccc2F)nc1,inactive: 3%
23,CC(=O)Nc1ccc([As](=O)(O)O)cc1,inactive: 2%
24,O=C(O)c1ccccc1[As](=O)(O)O,inactive: 1%
25,Nc1cccc2ccc([As](=O)(O)O)cc12,inactive: 3%
26,O=[N+]([O-])c1cc([N+](=O)[O-])c(CCN2CCOCC2)c([N+](=O)[O-])c1,inactive: 13%
